## Permeability data for macrocyclic peptides

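Conditions beyond the assay type are not listed; see the original paper. The list need not hold all peptides of the study. Entries at the database's floor value (log10 P of -10) are not listed.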

PAMPA is the parallel artificial membrane permeability assay, which has no cells and reads passive diffusion.
P is given in units of 10^-6 cm/s (from log10 values with two decimals); larger means faster passage.

| PAMPA (10^-6 cm/s) | compound |
|---|---|
| 0.5 | CC(C)C[C@@H]1NC(=O)[C@@H](C)NC(=O)[C@@H]2CCCN2C(=O)[C@H](Cc2ccccc2)NC(=O)CN(Cc2ccccc2)C(=O)[C@H]2CCCN2C(=O)[C@H](CC(C)C)N(C)C1=O |
| 2.2 | CC(C)C[C@@H]1NC(=O)[C@@H](CC(C)C)NC(=O)[C@@H](C)N(C)C(=O)[C@@H]2CCCN2C(=O)[C@H](Cc2ccccc2)NC(=O)CN(Cc2ccccc2)C(=O)[C@H]2CCCN2C1=O |
| 1.4 | CCCN1CC(=O)N[C@H](CC(C)C)C(=O)N(Cc2ccccc2)CC(=O)N2CCC[C@H]2C(=O)N(Cc2ccccc2)CC(=O)N[C@@H](Cc2ccccc2)C(=O)N2CCC[C@@H]2C1=O |
| 7.9 | CC(C)C[C@@H]1C(=O)N(C)[C@H](CC(C)C)C(=O)N2CCC[C@@H]2C(=O)N(Cc2ccccc2)CC(=O)N[C@@H](Cc2ccccc2)C(=O)N[C@@H](C)C(=O)N1C |
| 6.8 | CC(C)C[C@@H]1NC(=O)[C@@H](CC(C)C)N(C)C(=O)[C@@H](C)N(C)C(=O)[C@H]2CCCN2C(=O)[C@H](Cc2ccccc2)NC(=O)[C@H](CC(C)C)N(C)C(=O)[C@@H]2CCCN2C1=O |
| 1.2 | CC(C)C[C@@H]1NC(=O)[C@H]2CCCN2C(=O)[C@H](CC(C)C)NC(=O)[C@H](CC(C)C)NC(=O)[C@@H](C)NC(=O)[C@H]2CCCN2C(=O)[C@H](Cc2ccccc2)NC1=O |
| 1.3 | CC(C)C[C@@H]1C(=O)N[C@@H](Cc2ccccc2)CC(=O)N2CCC[C@H]2C(=O)N[C@H](CC(C)C)C(=O)N[C@@H](Cc2ccccc2)C(=O)N[C@H](C)C(=O)N1C |
| 1.7 | CC(C)C[C@@H]1NC(=O)[C@@H](C)N(C)C(=O)[C@@H]2CCCN2C(=O)[C@H](Cc2ccccc2)NC(=O)[C@@H](CC(C)C)N(C)C(=O)[C@H]2CCCN2C(=O)CN(Cc2ccccc2)C1=O |
| 12 | CCCN1CC(=O)N(C)[C@@H](CC(C)C)C(=O)N(Cc2ccccc2)CC(=O)N2CCC[C@H]2C(=O)N(C)[C@@H](CC(C)C)C(=O)N[C@@H](Cc2ccccc2)C1=O |
| 1.6 | CC(C)C[C@H]1NC(=O)CN(Cc2ccccc2)C(=O)[C@H](C)N(C)C(=O)[C@H]2CCCN2C(=O)[C@H](Cc2ccccc2)NC(=O)CN(Cc2ccccc2)C(=O)[C@H]2CCCN2C1=O |
| 4.9 | CC(C)C[C@H]1C(=O)N[C@@H](Cc2ccccc2)C(=O)N2CCC[C@@H]2C(=O)N(C)[C@@H](C)C(=O)N(C)[C@@H](CC(C)C)C(=O)N[C@@H](Cc2ccccc2)CC(=O)N2CCC[C@@H]2C(=O)N1C |
| 11 | CCCN1CC(=O)N[C@H](CC(C)C)C(=O)N[C@@H](CC(C)C)C(=O)N2CCC[C@H]2C(=O)N[C@@H](CC(C)C)C(=O)N[C@@H](Cc2ccccc2)C1=O |
| 0.11 | CC(C)C[C@@H]1NC(=O)[C@H]2CCCN2C(=O)[C@H](CC(C)C)N(C)C(=O)[C@@H](CC(C)C)NC(=O)[C@H](C)N(C)C(=O)[C@H]2CCCN2C(=O)[C@H](Cc2ccccc2)NC1=O |
| 0.43 | CC(C)C[C@@H]1NC(=O)[C@@H](CC(C)C)NC(=O)[C@H](C)NC(=O)[C@H]2CCCN2C(=O)[C@H](Cc2ccccc2)NC(=O)[C@@H](CC(C)C)NC(=O)[C@H]2CCCN2C1=O |
| 6.9 | CC(C)C[C@@H]1NC(=O)[C@@H]2CCCN2C(=O)[C@H](CC(C)C)NC(=O)[C@@H](CC(C)C)N(C)C(=O)[C@@H](C)N(C)C(=O)[C@H](Cc2ccccc2)NC1=O |
| 2.5 | CC(C)C[C@@H]1NC(=O)[C@@H](C)N(C)C(=O)[C@H]2CCCN2C(=O)[C@H](Cc2ccccc2)NC(=O)[C@@H](CC(C)C)NC(=O)[C@@H]2CCCN2C(=O)CN(Cc2ccccc2)C1=O |
| 1.7 | CCCN1CC(=O)N[C@@H](CC(C)C)C(=O)N(Cc2ccccc2)CC(=O)N2CCC[C@H]2C(=O)N[C@@H](CC(C)C)C(=O)N[C@@H](Cc2ccccc2)C(=O)N2CCC[C@@H]2C1=O |
| 0.72 | CC(C)C[C@@H]1C(=O)N[C@@H](Cc2ccccc2)C(=O)N[C@@H](C)C(=O)N(C)[C@@H](CC(C)C)C(=O)N[C@H](CC(C)C)C(=O)N2CCC[C@@H]2C(=O)N1C |
| 0.31 | CC(C)C[C@@H]1NC(=O)[C@@H](C)NC(=O)[C@H]2CCCN2C(=O)[C@H](Cc2ccccc2)NC(=O)[C@@H](CC(C)C)NC(=O)[C@@H]2CCCN2C(=O)[C@@H](CC(C)C)NC1=O |
| 0.46 | CC(C)C[C@@H]1C(=O)N[C@@H](Cc2ccccc2)C(=O)N2CCC[C@H]2C(=O)N[C@@H](C)C(=O)N(Cc2ccccc2)CC(=O)N[C@@H](Cc2ccccc2)CC(=O)N2CCC[C@H]2C(=O)N1C |
| 0.56 | CC(C)C[C@@H]1NC(=O)[C@@H](C)N(C)C(=O)[C@H]2CCCN2C(=O)[C@H](Cc2ccccc2)NC(=O)[C@@H](CC(C)C)N(C)C(=O)[C@H]2CCCN2C(=O)C[C@H](Cc2ccccc2)NC1=O |

Data: CycPeptMPDB; original report Townsend et al. 2020, doi:10.26434/chemrxiv.13335941.v1.